Measurements reported in US8622991B2, “Method and device for drug delivery” (Insuline Medical Ltd., priority 2007, dated 2014).

Conditions: with heating device vs without, bolus 0.15 U/kg, average of 11 subjects, FIG. 26b

In the case of insulin, the “blood insulin concentration for the same amount of infused insulin” value (initial 2 hours) is reported as “significantly higher” and the “1 hour area under the curve improvement (amount of absorbed insulin in the blood)” value is reported as > 30%.
